Measured values from ChEMBL document CHEMBL1143418, “Colistin methanesulfonate against multidrug-resistant Acinetobacter baumannii in an in vitro pharmacodynamic model” (2007).

Test system: Acinetobacter baumannii
Assay: Antibacterial activity against multidrug-resistant Acinetobacter baumannii 06-74 isolate by CLSI microdilution test
Type: functional

COLISTIN SULFATE
MIC: 0.5 µg/mL
